Test results from ChEMBL document CHEMBL2424619, “Small-molecule ligands of methyl-lysine binding proteins: optimization of selectivity for L3MBTL3” (J Med Chem, 2013).

Amino acid sequences for entries named in this document (tags omitted).
UniProt Q05BQ5, whole entry: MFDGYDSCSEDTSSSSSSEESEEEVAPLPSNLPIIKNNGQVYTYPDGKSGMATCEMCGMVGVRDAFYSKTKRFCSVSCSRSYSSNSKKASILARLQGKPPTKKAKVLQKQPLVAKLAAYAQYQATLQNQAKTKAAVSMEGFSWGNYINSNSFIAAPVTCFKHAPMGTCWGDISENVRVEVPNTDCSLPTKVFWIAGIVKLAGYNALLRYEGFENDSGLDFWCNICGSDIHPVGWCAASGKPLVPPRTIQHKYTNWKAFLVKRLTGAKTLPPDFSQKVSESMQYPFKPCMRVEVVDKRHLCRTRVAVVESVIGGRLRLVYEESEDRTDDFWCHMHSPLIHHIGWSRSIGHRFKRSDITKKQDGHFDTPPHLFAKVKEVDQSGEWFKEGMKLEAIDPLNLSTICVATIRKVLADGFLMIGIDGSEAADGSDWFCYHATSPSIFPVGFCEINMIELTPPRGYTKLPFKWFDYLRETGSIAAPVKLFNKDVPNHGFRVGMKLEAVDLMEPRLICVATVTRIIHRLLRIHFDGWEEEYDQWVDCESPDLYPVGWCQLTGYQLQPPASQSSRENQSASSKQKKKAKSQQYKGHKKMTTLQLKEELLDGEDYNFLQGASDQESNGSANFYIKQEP

Columns and labels:
[1] = molecular target: MBT domain-containing protein 1 (Homo sapiens, UniProt Q05BQ5); assay: Inhibition of MBTD1 (unknown origin) after 30 mins by AlphaScreen assay
[2] = molecular target: T1, Chromobox protein homolog 7 (Homo sapiens, UniProt O95931); assay: Inhibition of CBX7 (unknown origin) after 30 mins by AlphaScreen assay
T1 sequence (O95931 whole entry): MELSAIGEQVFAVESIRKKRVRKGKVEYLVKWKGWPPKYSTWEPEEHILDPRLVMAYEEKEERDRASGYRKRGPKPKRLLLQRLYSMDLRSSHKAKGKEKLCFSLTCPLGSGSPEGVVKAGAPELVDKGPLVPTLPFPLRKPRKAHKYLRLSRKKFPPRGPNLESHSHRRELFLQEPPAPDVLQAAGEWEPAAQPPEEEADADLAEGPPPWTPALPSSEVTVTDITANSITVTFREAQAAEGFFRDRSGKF

[3] = molecular target: T2, Lethal(3)malignant brain tumor-like protein 4 (Homo sapiens, UniProt Q8NA19); assay: Inhibition of L3MBTL4 (unknown origin) after 30 mins by AlphaScreen assay
T2 sequence (Q8NA19 whole entry): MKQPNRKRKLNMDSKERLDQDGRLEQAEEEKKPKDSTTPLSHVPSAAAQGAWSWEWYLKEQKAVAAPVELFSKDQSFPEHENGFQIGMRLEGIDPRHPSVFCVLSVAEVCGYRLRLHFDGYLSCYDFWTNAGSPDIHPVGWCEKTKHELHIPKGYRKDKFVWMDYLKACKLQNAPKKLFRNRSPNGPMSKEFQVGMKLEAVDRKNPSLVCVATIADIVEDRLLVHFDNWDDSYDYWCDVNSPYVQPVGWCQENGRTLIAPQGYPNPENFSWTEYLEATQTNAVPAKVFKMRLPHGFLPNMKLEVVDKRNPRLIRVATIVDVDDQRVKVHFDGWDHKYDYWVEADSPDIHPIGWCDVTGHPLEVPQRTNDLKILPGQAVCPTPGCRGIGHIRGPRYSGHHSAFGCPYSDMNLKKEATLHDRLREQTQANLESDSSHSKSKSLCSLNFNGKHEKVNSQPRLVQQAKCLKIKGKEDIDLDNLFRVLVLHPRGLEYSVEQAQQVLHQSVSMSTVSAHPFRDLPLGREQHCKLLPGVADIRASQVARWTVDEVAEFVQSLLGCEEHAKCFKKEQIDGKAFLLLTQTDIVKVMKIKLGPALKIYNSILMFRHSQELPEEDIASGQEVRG

[4] = molecular target: T3, Lethal(3)malignant brain tumor-like protein 3 (Homo sapiens, UniProt Q96JM7); assay: Inhibition of L3MBTL3 (unknown origin) after 30 mins by AlphaScreen assay
T3 sequence (Q96JM7 whole entry): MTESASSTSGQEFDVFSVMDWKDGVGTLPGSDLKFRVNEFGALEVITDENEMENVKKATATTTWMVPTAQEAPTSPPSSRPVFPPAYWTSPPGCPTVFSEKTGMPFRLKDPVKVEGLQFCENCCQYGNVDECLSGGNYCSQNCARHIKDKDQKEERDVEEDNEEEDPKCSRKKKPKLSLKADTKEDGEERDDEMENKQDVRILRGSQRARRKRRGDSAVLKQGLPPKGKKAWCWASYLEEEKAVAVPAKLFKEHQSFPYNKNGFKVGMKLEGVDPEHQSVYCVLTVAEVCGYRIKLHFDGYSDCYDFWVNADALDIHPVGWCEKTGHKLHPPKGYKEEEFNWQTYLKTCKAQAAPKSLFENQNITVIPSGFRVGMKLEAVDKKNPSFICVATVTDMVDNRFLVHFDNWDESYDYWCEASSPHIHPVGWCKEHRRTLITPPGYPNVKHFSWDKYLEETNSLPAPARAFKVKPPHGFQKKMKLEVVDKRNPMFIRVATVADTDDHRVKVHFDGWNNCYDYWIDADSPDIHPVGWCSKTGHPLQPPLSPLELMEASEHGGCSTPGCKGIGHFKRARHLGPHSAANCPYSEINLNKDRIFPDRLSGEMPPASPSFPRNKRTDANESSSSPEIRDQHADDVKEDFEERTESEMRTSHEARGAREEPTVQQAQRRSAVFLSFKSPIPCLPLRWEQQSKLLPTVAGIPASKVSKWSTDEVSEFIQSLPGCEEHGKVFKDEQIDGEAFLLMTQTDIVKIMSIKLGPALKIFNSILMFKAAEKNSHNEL

Row | Structure (SMILES) | IC50 [1] | IC50 [2] | IC50 [3] | IC50 [4]
1 | O=C(c1ccc(C(=O)N2CCN(C3CCCC3)CC2)cc1)N1CCC(N2CCCC2)CC1 | > 10 µM | > 10 µM | > 10 µM | –
2 | O=C(c1cccc(Br)c1)N1CCC(C2CCCN2)CC1 (centres undefined) | – | – | – | > 30 µM
